Measured affinities in a library of Ab-95 light chain variants

Data: MIT Lincoln Laboratory AlphaSeq set, Engelhart et al. 2022, doi:10.1038/s41597-022-01779-4, as distributed in FLAb.

Binding partner: SARS-CoV-2 spike HR2 peptide, sequence PDVDLGDISGINAS.

Ab-95 is the parent antibody, in scFv form: VH, then a (GGGGS)3 linker, then VL. The heavy chain is unchanged in all variants.
VH: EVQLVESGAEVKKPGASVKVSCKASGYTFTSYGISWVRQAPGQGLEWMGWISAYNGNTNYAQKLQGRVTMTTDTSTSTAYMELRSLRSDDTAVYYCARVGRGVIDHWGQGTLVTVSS
VL: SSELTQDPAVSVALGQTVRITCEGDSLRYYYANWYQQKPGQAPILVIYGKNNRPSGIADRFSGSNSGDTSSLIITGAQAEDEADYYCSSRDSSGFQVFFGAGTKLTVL

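Phage display of a naive human antibody library on the peptide gave the parent. Variants in AAYL52 differ from the parent at up to three CDR positions; double and triple changes were sampled at random. The assay is AlphaSeq: two haploid yeast populations carry antibody and antigen on their surface. The frequency of each diploid, read from paired DNA barcodes, reflects how well the two displayed proteins bind. Each replicate has its own calibration line, from reference interactions of the BCL2 family. There are three technical replicates.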

Variants are written as CDR1, CDR2 and CDR3 of the light chain (limits as in the source). Parent: EGDSLRYYYAN, GKNNRPS, SSRDSSGFQVF. Every variant below is changed at A32 of the VL (sequential numbering). Kd is apparent (estimated from mating counts) and averaged on the log scale over replicates with a signal. Smaller is tighter. A pair that was not seen in any replicate is written "no signal"; this usually means weak binding, but a binder can also be missed. In this assay the parent's reference entry averaged 200 nM; its copy inside this library read 180 nM. As a blank, each scFv also met three strains without target: over library AAYL52, 28% of these pairings were detected, typically at 8.2 µM and seldom below 800 nM.

CDR-L1,CDR-L2,CDR-L3,apparent Kd,seen in
EGDSLRYYYMN,DKNNRPS,SSRESSGFQVF,29 µM,3/3
EGDSLRYYYTD,GKQNRPS,SSRDSSGFQVF,840 nM,2/3
EGFSLRYYYLN,GKNNRPS,SSRDSPGFQVF,3.4 µM,2/3
EGDSLRYYYNN,GKNNEPS,SSRDSSGHQVF,45 µM,2/3
EGDSLRYVYFV,GKNNRPS,SSRDSSGFQVF,340 nM,3/3
EHDSLRAYYHN,GKNNRPS,SSRDSSGFQVF,740 µM,1/3
EGDSLRYYYCN,GKNNRPS,SSRDSRGYQVF,920 nM,2/3
EGNSLRYYYWN,GKNNRPS,SKRDSSGFQVF,no signal,0/3
EGDSLRYYKHN,GKNNRPS,SSRDSSGWQVF,130 µM,1/3
EGDSLRYYYLN,GKNNRPS,SSRDSSCYQVF,20 µM,2/3
EGDSLRYYYPN,GKNNRPS,SSRDSSFFVVF,89 nM,3/3
EGDSLRYYYLN,GKNNRPS,SSADSSFFQVF,no signal,0/3
EGDSLQYYYHN,GKNNRPS,LSRDSSGFQVF,2.8 µM,2/3
PGDSLRYYYTN,GKNNRPS,SSRDSSGFQVF,11 µM,3/3
ERDSHRYYYWN,GKNNRPS,SSRDSSGFQVF,no signal,0/3
QGDSLRYYYTN,GKNNRPS,SSRDSSGFQAF,110 nM,3/3
EGDSLRYYYNN,GKNYRPS,SSRDSMGFQVF,no signal,0/3
EGDSLRYYYRN,GFCNRPS,SSRDSSGFQVF,8.6 µM,3/3
EGDSLRYYYLN,GLNNRPS,SSRDSSGFQVF,120 µM,2/3
EGDSLRYYYNN,GKNNRPS,SSRDSSGFQVF,830 nM,3/3
EGDSLRYYYRN,GKNNFPS,SSRDYSGFQVF,30 µM,1/3
EGRSLRYYYWN,GKNNRPV,SSRDSSGFQVF,21 µM,2/3
EVDSLRYYYFN,GKNNRPS,SSRDSHGFQVF,no signal,0/3
EGDSLRPYYQN,GKNNRPS,SSRDSDGFQVF,1.6 µM,3/3
EGDSLRYYYIN,GKNPRPS,SSRDSSGFKVF,42 µM,2/3
EGDSLRYYYHN,GKNNRPC,SSRTSSGFQVF,15 µM,1/3
EGDWLRYYYPN,GKNNRPS,SSRDCSGFQVF,2.8 µM,3/3
KGDSLRYYYYG,GKNNRPS,SSRDSSGFQVF,12 µM,2/3
EGDSLGYYYEN,GKNNRPS,SSRASSGFQVF,10 µM,1/3
EGDSLRYYYKN,GKNNRDS,SSRDSSGFIVF,no signal,0/3
EGDSLRYEYSN,GKNNRFS,SSRDSSGFQVF,2.8 µM,2/3
EGDSLRYYGTN,GKNNRPS,SSRDSSGFQYF,20 nM,3/3
EGDSLRYYYTN,GKNQRPS,SSRDSVGFQVF,370 nM,3/3
EGDSLRYYYKN,GKNNRPS,RSRDSSGWQVF,3.3 µM,1/3
EGISLRYYYVN,GKNFRPS,SSRDSSGFQVF,2.1 µM,3/3
EGDSLRYYYVN,GKNNRPS,SSRDSSGFQVF,280 nM,3/3
RGDSLRYYYCN,GKNNRPS,SSRDSSGFQHF,270 nM,3/3
IGDSLRYYYHN,GKNDRPS,SSRDSSGFQVF,no signal,0/3
EGDSLRYDYGN,GKNNRPS,SSRDSSGFQVL,3.8 µM,3/3
EGDSLRYYYEN,EKNNRPS,SSRDSSGFLVF,21 µM,2/3
EGDSLAYYYEN,GKNNRPS,SSRDWSGFQVF,17 µM,1/3
EGDSLRYRYTN,GKNNRPS,SSRDSSGFVVF,1.1 µM,3/3
ETDSLRYYYMN,GKNNRPS,MSRDSSGFQVF,1.5 µM,2/3
EGDSRRYYYKC,GKNNRPS,SSRDSSGFQVF,580 nM,3/3
EGDSLRYYYGN,GKNNRFS,SSRYSSGFQVF,130 nM,3/3
EGDSLRYYYGN,DKYNRPS,SSRDSSGFQVF,81 µM,1/3
EGDKFRYYYGN,GKNNRPS,SSRDSSGFQVF,no signal,0/3
EGDSLRYYYLN,GKNNRPS,SSEDSSAFQVF,1.8 µM,1/3
EGDSLRYYYRN,GKNNWYS,SSRDSSGFQVF,11 µM,2/3
EGDSLRYYYEN,GKNNRPS,SSRDSWGFQYF,no signal,0/3
EGDSLRYYYNN,GKNNIPS,DSRDSSGFQVF,no signal,0/3

For reference, 4 entries of the list once more:

| CDR-L1 | CDR-L2 | CDR-L3 | apparent Kd | seen in |
|---|---|---|---|---|
| KGDSLRYYYYG | GKNNRPS | SSRDSSGFQVF | 12 µM | 2/3 |
| ERDSHRYYYWN | GKNNRPS | SSRDSSGFQVF | no signal | 0/3 |
| EGDSLRYYYLN | GKNNRPS | SSEDSSAFQVF | 1.8 µM | 1/3 |
| EGDSLRYEYSN | GKNNRFS | SSRDSSGFQVF | 2.8 µM | 2/3 |